Read-outs that look alike come from different tables or passages of the source.
Tests used:
[1] = FXa chromogenic activity of rFX variants after activation with TF-FVIIa; type: biochemical; settings: for FXa Activity: activation of FX with TF-FVIIa, compared to FXa standard curve; for % wt (FXa activity): activation with TF-FVIIa, adjusted for antigen levels
Description: (§1) The FX mutants were generated using the Quick-change site-directed mutagenesis kit (Stratagene) and the entire FX cDNA was sequenced to verify the identity of the product. The various plasmids were transiently transfected into HEK 293 cells using Lipofectamine-2000. 48 hr post-transfection, media was collected and FX antigen levels were determine using a FX-specific ELISA and FXa activity was assessed by chromogenic assay prior to activation by RVV-X or by tissue factor-FVIIa.

[2] = FXa chromogenic activity of rFX variants after activation with RVV-X; type: biochemical; settings: for FXa Activity: activation of FX with RVV-X, compared to FXa standard curve; for % wt (FXa activity): activation with RVV-X, adjusted for antigen levels
Description: as §1

prothrombin = prothrombin (Homo sapiens, UniProt P00734); assay: Kinetic constants for prothrombin cleavage by prothrombinase; type: biochemical; settings: for Km: read-out: Km ± SD
[3] = Kinetic studies using peptidyl substrates and active site directed probes; type: biochemical; settings: free FXa
Source text: (§2) Enzyme concentrations will be determined by active-site titration with ρ-nitrophenyl ρ-guanidinobenzoate (IIa) or fluorescein mono-ρ-guanidinobenzoate (FXa) (26, 27). FXa chromogenic substrate activity, in the presence or absence of various inhibitors, will be measured from initial rates of hydrolysis of Spectrozyme FXa, S-2222, or S-2765 as previously described (14). Kinetic parameters will be determined by least-squares fitting of the initial rate data to appropriate equations.
We first focused on assessing changes to the active site environment of each of the variants using specific probes that target this region of FXa.

[4] = Kinetic constants for chromogenic substrate cleavage (free factor Xa or prothrombinase); type: biochemical; settings: for Km: read-out: Km ± SD; for Km for peptidyl substrates / kcat reduced: assembled into prothrombinase; for kcat reduced: compared to wild-type FXa
Source text: as §2

FVa = target: T1, FVa (Homo sapiens, UniProt P12259); assay: Equilibrium binding for prothrombinase assembly (displacement of fluorescent inactive wtFXa from FVa-membranes); settings: for Kd: FVa, synthetic phospholipid vesicles, Ca2+, read-out: Kd ± SD; for affinity for FVa: FVa-membranes, competition with fluorescent inactive wtFXa
T1 sequence (P12259 29-737 limits assumed): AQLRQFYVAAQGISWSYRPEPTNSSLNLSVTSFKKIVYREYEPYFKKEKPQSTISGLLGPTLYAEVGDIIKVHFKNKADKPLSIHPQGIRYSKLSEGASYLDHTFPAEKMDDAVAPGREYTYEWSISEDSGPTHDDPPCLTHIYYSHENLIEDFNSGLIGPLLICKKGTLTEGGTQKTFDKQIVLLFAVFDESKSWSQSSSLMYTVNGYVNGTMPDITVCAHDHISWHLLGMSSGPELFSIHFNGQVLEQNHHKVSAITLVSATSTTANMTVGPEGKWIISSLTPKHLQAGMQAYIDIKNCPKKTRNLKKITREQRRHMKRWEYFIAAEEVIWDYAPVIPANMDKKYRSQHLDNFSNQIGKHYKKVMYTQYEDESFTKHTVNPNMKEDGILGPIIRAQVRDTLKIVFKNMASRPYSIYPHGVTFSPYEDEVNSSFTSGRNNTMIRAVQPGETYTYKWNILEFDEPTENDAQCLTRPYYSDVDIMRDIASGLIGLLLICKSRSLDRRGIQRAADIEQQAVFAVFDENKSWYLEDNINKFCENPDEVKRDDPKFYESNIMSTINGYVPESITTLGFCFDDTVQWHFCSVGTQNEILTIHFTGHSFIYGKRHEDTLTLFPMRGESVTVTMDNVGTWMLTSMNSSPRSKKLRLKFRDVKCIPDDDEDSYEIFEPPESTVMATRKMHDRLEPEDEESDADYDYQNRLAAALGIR
T1 sequence (P12259 1574-2224 limits assumed): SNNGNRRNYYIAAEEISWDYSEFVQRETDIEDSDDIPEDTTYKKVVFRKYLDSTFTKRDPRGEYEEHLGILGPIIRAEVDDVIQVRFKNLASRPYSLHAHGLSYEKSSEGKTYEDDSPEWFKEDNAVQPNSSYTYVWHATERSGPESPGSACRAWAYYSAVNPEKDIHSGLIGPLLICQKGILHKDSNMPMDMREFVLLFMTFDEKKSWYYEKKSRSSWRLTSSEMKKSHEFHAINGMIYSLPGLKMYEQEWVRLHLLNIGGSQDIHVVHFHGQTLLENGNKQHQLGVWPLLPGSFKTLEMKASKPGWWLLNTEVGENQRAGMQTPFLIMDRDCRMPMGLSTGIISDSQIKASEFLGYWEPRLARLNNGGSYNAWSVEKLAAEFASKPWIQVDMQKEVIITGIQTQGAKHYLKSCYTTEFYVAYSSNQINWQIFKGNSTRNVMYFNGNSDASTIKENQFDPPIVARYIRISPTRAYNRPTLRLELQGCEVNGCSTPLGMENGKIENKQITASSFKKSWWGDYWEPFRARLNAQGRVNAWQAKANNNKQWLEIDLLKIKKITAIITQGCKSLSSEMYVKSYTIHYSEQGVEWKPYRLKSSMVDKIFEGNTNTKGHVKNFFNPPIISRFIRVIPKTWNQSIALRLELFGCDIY

[5] = Inhibition of FXa and prothrombinase by Pefabloc tPa/Xa; type: biochemical; settings: for Ki: read-out: Ki ± SD Pefabloc tPa/Xa
Source text: as §2

Antithrombin III = Antithrombin III (Homo sapiens, UniProt P01008); assay: Inhibition of FXa and prothrombinase by Antithrombin III; type: biochemical
Source text: as §2

[6] = Inhibition of FXa and prothrombinase by para-amino benzamidine; type: biochemical; settings: for Ki: read-out: Ki ± SD Para-amino benzamidine
Source text: as §2

hemophilia B plasma = assay: aPTT clotting time of hemophilia B plasma spiked with FXa; type: biochemical; settings: 0.1 nM in hemophilia B plasma
Description: Based on the observation that the zymogen-like FXa derivatives have poor reactivity with active-site directed probes and inhibitors in the absence of FVa, but apparently near normal activity when the variants are assembled in prothrombinase, we next evaluated the activity of FXaI16L (FXaI235L) in a plasma environment. Hemophilic A (data not shown) or B plasma was spiked with wild-type FXa to correct the clotting time (aPTT) of these plasmas; 0.1 nM wtFXa gave a clotting time of ˜32 sec. […] Next we monitored the half-life of wild-type FXa and FXaI16L (FXaI235L) in hemophilia B plasma. The proteins were added to HB plasma and at different time points, an aliquot of the mixture was withdrawn and assayed in an aPTT-based assay. […] Similar results were found with hemophilia A plasma.

[7] = Prothrombinase, 5.0 nM FXa, 30 nM factor Va, 50 μM PCPS
[8] = free Factor Xa, 2.0 nM wild-type or 6.0 nM mutant

Substance: Asp194→Asn: rFX variant, Asp194 (position 418 in SEQ ID NO: 1) replaced by Asn
- FXa Activity [1]: 0.000 nM
- % wt (FXa activity) [1]: 0.00%
- FXa Activity [2]: 0.03 nM
- % wt (FXa activity) [2]: 0.79%

Substance: Asp194→Qu: rFX variant, Asp194 (position 418 in SEQ ID NO: 1) replaced, probably by Glu
- FXa Activity [1]: 0.000 nM
- % wt (FXa activity) [1]: 0.00%
- FXa Activity [2]: 0.02 nM
- % wt (FXa activity) [2]: 0.27%

Substance: Ile16→Asp: rFX variant, Ile16 (position 235 in SEQ ID NO: 1) replaced by Asp
- FXa Activity [1]: 0.000 nM
- % wt (FXa activity) [1]: 0.00%
- FXa Activity [2]: 0.01 nM
- % wt (FXa activity) [2]: 0.22%

Substance: Ile16→Phe: rFX variant, Ile16 (position 235 in SEQ ID NO: 1) replaced by Phe
- FXa Activity [1]: 0.004 nM
- % wt (FXa activity) [1]: 0.02%
- FXa Activity [2]: 0.01 nM
- % wt (FXa activity) [2]: 0.08%

Substance: Val17→Gly: rFX variant, Val17 (position 236 in SEQ ID NO: 1) replaced by Gly
- FXa Activity [1]: 0.036 nM
- % wt (FXa activity) [1]: 0.22%
- FXa Activity [2]: 0.02 nM
- % wt (FXa activity) [2]: 0.21%

Substance: Val17→Leu: rFX variant, Val17 (position 236 in SEQ ID NO: 1) replaced by Leu
- FXa Activity [1]: 3.003 nM
- % wt (FXa activity) [1]: 30.48%
- FXa Activity [2]: 1.22 nM
- % wt (FXa activity) [2]: 21.33%

Substance: pdFXa: plasma-derived wild-type FXa [reference compound]
- Vmax/Et ± SD (prothrombin): 2424 ± 54 nM IIa/min/nM E
- Vmax/Et · Km (prothrombin): 9.6e+07 M⁻¹ s⁻¹
- Km (prothrombin): 0.42 ± 0.02 µM

Substance: rFXa^I16G: factor X/Xa variant, Ile16 (position 235 in SEQ ID NO: 1) replaced by Gly
- inhibition by active site directed probes [3]: not inhibited by any of the probes examined
- FXa Activity [1]: 0.037 nM
- % wt (FXa activity) [1]: 0.38%
- FXa Activity [2]: 0.00 nM
- % wt (FXa activity) [2]: 0.05%
- fold change of kcat versus rwtFXa ([4]; Prothrombinase): 60X
- kcat ± SD [4, 7]: 1.92 ± 0.05 s⁻¹
- Km [4, 7]: 433 ± 31 µM
- Km increased compared to wild-type FXa ([4]; assembled in prothrombinase): 3 fold
- Km for peptidyl substrates [4]: almost completely restored
- kcat reduced [4]: 60 fold
- chromogenic activity impaired ([4]; free FXa): 500 to 1000 fold
- kcat ± SD ([4]; free Factor Xa): 0.28 ± 0.05 s⁻¹
- Km [4, 8]: 1610 ± 423 µM

Substance: rFXa^S195A: inactive FXa mutant missing the Ser of the catalytic triad, high affinity for FVa; control competitor [reference compound]
- Kd (FVa): 1.34 ± 0.17 nM
- affinity for FVa (FVa): high affinity for FVa

Substance: rFXa^V17A: factor X/Xa variant, Val17 (position 236 in SEQ ID NO: 1) replaced by Ala
- fold change of Ki Pefabloc tPa/Xa versus rwtFXa ([5]; Prothrombinase): 5X
- Ki ([5]; Prothrombinase): 295 ± 13 nM
- fold change of Ki Pefabloc tPa/Xa versus rwtFXa ([5]; free Factor Xa): 25X
- Ki ([5]; free Factor Xa): 1700 ± 72 nM
- fold change of k2 Antithrombin III versus rwtFXa (Antithrombin III; Prothrombinase): 4X
- k2 ± SD Antithrombin III (Antithrombin III; Prothrombinase): 0.05 ± 0.001 M^−1 s^−1 × 10^3
- fold change of k2 Antithrombin III versus rwtFXa (Antithrombin III; free Factor Xa): 19X
- k2 ± SD Antithrombin III (Antithrombin III; free Factor Xa): 0.09 ± 0.003 M^−1 s^−1 × 10^3
- Vmax/Et ± SD (prothrombin): 887 ± 26 nM IIa/min/nM E
- Vmax/Et · Km (prothrombin): 3.1e+07 M⁻¹ s⁻¹
- Km (prothrombin): 0.47 ± 0.03 µM
- FXa Activity [1]: 1.029 nM
- % wt (FXa activity) [1]: 5.27%
- fold change of Ki para-amino benzamidine versus rwtFXa ([6]; Prothrombinase): 3X
- Ki ([6]; Prothrombinase): 191000 ± 6400 nM
- fold change of Ki para-amino benzamidine versus rwtFXa ([6]; free Factor Xa): 11X
- Ki ([6]; free Factor Xa): 996000 ± 37000 nM
- FXa Activity [2]: 0.34 nM
- % wt (FXa activity) [2]: 3.02%
- fold change of Km versus rwtFXa ([4]; Prothrombinase): 3X
- fold change of kcat versus rwtFXa ([4]; Prothrombinase): 3X
- kcat ± SD [4, 7]: 68.2 ± 9.7 s⁻¹
- Km [4, 7]: 362 ± 42 µM
- Km for peptidyl substrates [4]: almost completely restored
- kcat reduced [4]: 3 fold
- rate of catalysis (kcat) reduced ([4]; free FXa, compared to wild-type FXa (plasma-derived and recombinant)): 3 fold
- fold change of Km versus rwtFXa ([4]; free Factor Xa): 15X
- fold change of kcat versus rwtFXa ([4]; free Factor Xa): 3X
- kcat ± SD ([4]; free Factor Xa): 71.6 ± 13.5 s⁻¹
- Km [4, 8]: 1380 ± 332 µM
- Kd (FVa): 7.25 ± 0.65 nM
- affinity for FVa (FVa): significantly reduced compared to FXaS195A

Substance: rwtFXa: recombinant wild-type factor X (zymogen) / factor Xa after activation [reference compound]
- Ki ([5]; Prothrombinase): 50 ± 2 nM
- Ki ([5]; free Factor Xa): 70 ± 2 nM
- k2 ± SD Antithrombin III (Antithrombin III; Prothrombinase): 0.28 ± 0.01 M^−1 s^−1 × 10^3
- k2 ± SD Antithrombin III (Antithrombin III; free Factor Xa): 1.37 ± 0.02 M^−1 s^−1 × 10^3
- clotting time (aPTT) (hemophilia B plasma): ~32 s
- FXa Activity [1]: 18.905 nM
- % wt (FXa activity) [1]: 100.00%
- Ki ([6]; Prothrombinase): 48600 ± 600 nM
- Ki ([6]; free Factor Xa): 78100 ± 1500 nM
- FXa Activity [2]: 10.95 nM
- % wt (FXa activity) [2]: 100.00%
- kcat ± SD [4, 7]: 141 ± 3.7 s⁻¹
- Km [4, 7]: 130 ± 11 µM
- kcat ± SD ([4]; free Factor Xa): 215 ± 13.5 s⁻¹
- Km [4, 8]: 88.8 ± 11.4 µM

— US9410137B2, “Compositions and methods for modulating hemostasis” (The Children's Hospital of Philadelphia, priority 2005, dated 2016)
